# Ab-14 heavy chain CDR variants: yeast mating affinities

Source: Li et al. 2023 (doi:10.1038/s41467-023-39022-2), MIT Lincoln Laboratory and A-Alpha Bio; data file from the FLAb repository.

Binding partner: SARS-CoV-2 spike HR2 peptide, sequence PDVDLGDISGINAS.

Ab-14 is the parent antibody, in scFv form: VH, then the linker GGGGSGGGGSGGGGS, then VL. The light chain is unchanged in all variants.
VH: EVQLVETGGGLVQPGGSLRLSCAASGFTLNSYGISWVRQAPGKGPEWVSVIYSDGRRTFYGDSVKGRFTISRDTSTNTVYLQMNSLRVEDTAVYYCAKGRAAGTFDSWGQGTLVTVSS
VL: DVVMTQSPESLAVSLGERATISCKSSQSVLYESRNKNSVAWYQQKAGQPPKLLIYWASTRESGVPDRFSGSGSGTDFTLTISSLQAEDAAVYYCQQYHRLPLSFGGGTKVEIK

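The parent was found by panning a naive human phage display library on the peptide. These sequences belong to a second round, designed from the earlier measurements on random variants of the parent. Several design methods are mixed in this list. The scFvs were displayed on barcoded MATa yeast, the peptide on MATalpha yeast. Mating (16 h, 30 °C) was followed by selection of diploids and sequencing of their barcodes. A regression on co-assayed BCL2-family reference pairs converts the normalised counts of each replicate to an apparent Kd. Each pool was mated in six replicate cultures.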

Sequences are complete VH domains. This list holds designs with at most six substitutions. Values are apparent Kd, the geometric mean of the replicates that gave a signal; lower means stronger binding. A pair that was not seen in any replicate is written "no signal"; this usually means weak binding, but a binder can also be missed. The authors averaged sequences with at least three values out of six and counted those with two or fewer as poor binders. Values of this round are not directly comparable with the first-round values of the same sequences. As a blank, each scFv also met three strains without target: over all heavy chain designs, 1% of these pairings were detected, typically at 120 nM and seldom below 7.0 nM.

The variant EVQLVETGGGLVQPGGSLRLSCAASGFELNSYGISWVRQAPGKGPEWVSVIYSDGRRTFYHDSVKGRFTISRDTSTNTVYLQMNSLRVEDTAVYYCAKGQEAGTFDSWGQGTLVTVSS gave 1.7 nM (6 of 6 replicates). The variant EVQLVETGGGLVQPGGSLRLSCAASGFDLNSYGISWVRQAPGKGPEWVSVIYSDGRRTFYGDPVKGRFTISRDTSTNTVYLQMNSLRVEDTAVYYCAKGRNAGTFDSWGQGTLVTVSS showed 1.8 nM (6 of 6 replicates). The variant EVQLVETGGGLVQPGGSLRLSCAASGFTLNSYGISWVRQAPGKGPEWVSVIYADGRRTFYGDAVKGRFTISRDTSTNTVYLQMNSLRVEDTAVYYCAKGEAAGTFDKWGQGTLVTVSS showed 1.2 nM (6 of 6 replicates). The variant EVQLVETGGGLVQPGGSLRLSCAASGFSLNSYGISWVRQAPGKGPEWVSVIYSDGRRTFYGDSVKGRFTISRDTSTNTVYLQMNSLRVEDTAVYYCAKGITAGTFDLWGQGTLVTVSS gave 1.2 nM (6 of 6 replicates). The variant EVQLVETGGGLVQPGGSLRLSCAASGFTLNEYGISWVRQAPGKGPEWVSVIYSDGRRTFYGDSYKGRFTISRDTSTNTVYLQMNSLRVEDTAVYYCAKGRAAGTFPSWGQGTLVTVSS gave no signal (0 of 6 replicates). For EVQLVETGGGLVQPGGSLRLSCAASGFELNEYGISWVRQAPGKGPEWVSVIYSDGRRTFYSDSVKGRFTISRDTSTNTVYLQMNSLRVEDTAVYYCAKGRAAGTFDSWGQGTLVTVSS, the assay gave 440 pM (6 of 6 replicates). With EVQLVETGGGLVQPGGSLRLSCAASGFTLNLYGISWVRQAPGKGPEWVSVIYSDGRRTFYQDSVKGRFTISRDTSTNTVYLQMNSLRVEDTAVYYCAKGRAAGTFDSWGQGTLVTVSS the result was 20 nM (6 of 6 replicates). With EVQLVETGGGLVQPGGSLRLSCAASGFTLNSYGISWVRQAPGKGPEWVSVIYSDGRRTFYHDSVKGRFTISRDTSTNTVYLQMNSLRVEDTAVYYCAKGRVAGTFDTWGQGTLVTVSS the result was 5.0 nM (5 of 6 replicates).

The variant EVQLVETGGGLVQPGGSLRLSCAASGFSLNSYGISWVRQAPGKGPEWVSVIYSDGRRTFYADSVKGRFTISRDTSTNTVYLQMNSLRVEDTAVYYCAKGNAAGTFDSWGQGTLVTVSS showed 820 pM (6 of 6 replicates). The variant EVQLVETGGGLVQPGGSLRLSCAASGFTLNSYGISWVRQAPGKGPEWVSVIYSDGRRTFYIDSVRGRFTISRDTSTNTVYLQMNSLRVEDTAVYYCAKGRAAGEFNSWGQGTLVTVSS showed no signal (0 of 6 replicates). With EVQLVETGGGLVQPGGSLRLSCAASGFWLNEYGISWVRQAPGKGPEWVSVIYSDGRRTFYGDSVKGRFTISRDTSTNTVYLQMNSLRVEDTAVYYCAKGRHAGTFDSWGQGTLVTVSS the result was 75 nM (1 of 6 replicates). With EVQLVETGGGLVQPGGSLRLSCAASGFELNSYGISWVRQAPGKGPEWVSVIYSDGRRTFYTDSVKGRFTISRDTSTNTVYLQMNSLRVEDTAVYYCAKGMEAGTFDSWGQGTLVTVSS the result was 2.5 nM (6 of 6 replicates). The variant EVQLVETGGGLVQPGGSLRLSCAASGFELNEYGISWVRQAPGKGPEWVSVIYSDGRRTFYGDDVKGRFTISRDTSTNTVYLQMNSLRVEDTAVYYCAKGRTAGTFDSWGQGTLVTVSS gave 550 pM (6 of 6 replicates). The variant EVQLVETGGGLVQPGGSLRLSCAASGFDLNEYGISWVRQAPGKGPEWVSVIYADGRRTFYSDSVKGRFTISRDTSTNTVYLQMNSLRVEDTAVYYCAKGEAAGTFDEWGQGTLVTVSS showed 610 pM (6 of 6 replicates). The variant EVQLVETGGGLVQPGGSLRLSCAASGFTLNQYGISWVRQAPGKGPEWVSVIYSDGRRTSYSDSVKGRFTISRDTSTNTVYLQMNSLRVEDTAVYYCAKGRAAGTFDSWGQGTLVTVSS gave 1.5 nM (6 of 6 replicates).

The first 2 entries again:

{"VH": "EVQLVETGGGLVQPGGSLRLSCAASGFELNSYGISWVRQAPGKGPEWVSVIYSDGRRTFYHDSVKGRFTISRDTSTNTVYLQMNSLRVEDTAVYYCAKGQEAGTFDSWGQGTLVTVSS", "Kd (apparent)": "1.7 nM", "seen in": "6/6"}
{"VH": "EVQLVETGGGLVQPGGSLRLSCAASGFDLNSYGISWVRQAPGKGPEWVSVIYSDGRRTFYGDPVKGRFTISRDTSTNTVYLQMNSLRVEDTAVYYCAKGRNAGTFDSWGQGTLVTVSS", "Kd (apparent)": "1.8 nM", "seen in": "6/6"}